The text below walks through data of patent US7960155B1, “Cytochrome p450 monooxygenases and their use for oxidizing organic compounds” (BASF Aktiengesellschaft, priority 1999, dated 2011).

Protein sequences, listed by entry. Tags and fused reporters are not part of them. Residues count along the entry.
UniProt P14779, 2-1049 A75G/F88V/L189Q limits assumed: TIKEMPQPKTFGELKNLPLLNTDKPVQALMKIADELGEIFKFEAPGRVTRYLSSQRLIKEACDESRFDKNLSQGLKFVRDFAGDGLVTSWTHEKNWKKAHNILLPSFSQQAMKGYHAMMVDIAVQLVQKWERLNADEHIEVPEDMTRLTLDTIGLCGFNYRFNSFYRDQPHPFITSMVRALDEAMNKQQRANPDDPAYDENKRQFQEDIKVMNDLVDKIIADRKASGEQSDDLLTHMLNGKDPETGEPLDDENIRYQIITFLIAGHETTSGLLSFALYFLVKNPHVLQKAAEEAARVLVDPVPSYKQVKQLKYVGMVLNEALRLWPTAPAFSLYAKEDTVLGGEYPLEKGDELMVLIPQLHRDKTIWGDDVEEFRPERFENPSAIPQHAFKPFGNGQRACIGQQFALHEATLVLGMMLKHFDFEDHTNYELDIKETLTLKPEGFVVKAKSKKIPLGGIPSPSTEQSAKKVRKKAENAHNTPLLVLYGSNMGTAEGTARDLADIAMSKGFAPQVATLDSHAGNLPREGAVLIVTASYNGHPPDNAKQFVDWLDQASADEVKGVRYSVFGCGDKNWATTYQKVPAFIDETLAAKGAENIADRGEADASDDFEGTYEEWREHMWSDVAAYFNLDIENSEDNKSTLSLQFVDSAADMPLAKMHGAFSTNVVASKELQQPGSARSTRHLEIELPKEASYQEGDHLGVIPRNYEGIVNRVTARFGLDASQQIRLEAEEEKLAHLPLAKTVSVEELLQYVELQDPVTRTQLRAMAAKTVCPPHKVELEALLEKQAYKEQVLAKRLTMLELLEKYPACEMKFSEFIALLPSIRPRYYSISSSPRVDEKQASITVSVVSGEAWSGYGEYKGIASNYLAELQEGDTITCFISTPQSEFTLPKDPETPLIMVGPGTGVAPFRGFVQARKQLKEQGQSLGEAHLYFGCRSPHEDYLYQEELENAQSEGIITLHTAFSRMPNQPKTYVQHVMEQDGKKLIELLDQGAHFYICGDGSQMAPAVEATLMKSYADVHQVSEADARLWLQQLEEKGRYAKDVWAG

SMILES strings stand for the structures.

The data set concerns the target P450 BM-3 monooxygenase mutant Phe87Val Leu188Gln Ala74Gly (Priestia megaterium, UniProt P14779, A75G/F88V/L189Q). Kind of data set: Hydroxylation of substrates using modified cytochrome P450 monooxygenase (GC/MS, NMR analysis). As to conditions: for Conversion: product found by GC/MS of the reaction mixture, 25° C., pH 7.5; for starting material converted: Example 6 repeated with another substrate.

For `CCCCC(O)CCC` (stereo not shown) [Mutant 4-octanol, 4-octanol], the Conversion (substrate n-octane) is 37%. In the case of `CCCCCCC(C)O` (stereo not shown) [Mutant 2-octanol, 2-octanol], the Conversion (substrate n-octane) amounted to 16%. For `CCCCCC(O)CC` (stereo not shown) [Mutant 3-octanol, 3-octanol], the Conversion (substrate n-octane) came out at 47%. The compound `CC(=O)/C=C/C1C(C)=CCCC1(C)C` (stereo not drawn) [α-ionone] yielded a starting material converted of 60%. As to `CCCCCCCC` [n-octane], the starting material remaining entry (substrate n-octane, GC/MS) is on record as “No starting material was found”. On to `Cc1cccc2cccnc12` [8-methylquinoline], for which the starting material converted turned out to be 35%. Consider `CC(C)c1ccccc1` [cumene], for which the starting material converted stood at 70%.
